Key:
[1] = target: PTPN11-E76K mutant enzyme (Homo sapiens (Human), UniProt Q06124, E76K); assay: PTPN11 Enzymatic Assay (DiFMUP phosphatase activity); format: biochemical; details: full length PTPN11-E76K mutant enzyme 250 pM, DiFMUP 50 μM, 30 min preincubation
Method: Reaction was initiated by addition of DiFMUP (50 μM) at room temperature in 384-well black plate with a final reaction volume of 20 uL in assay buffer. […] Dose-response curves were analyzed using IC50 regression curve fitting (GeneData Screener). Curves were normalized to a high controls without inhibitor, and low controls without enzyme.

Protein sequences, listed by entry. Tags and fused reporters are not part of them.
UniProt Q06124, whole entry E76K: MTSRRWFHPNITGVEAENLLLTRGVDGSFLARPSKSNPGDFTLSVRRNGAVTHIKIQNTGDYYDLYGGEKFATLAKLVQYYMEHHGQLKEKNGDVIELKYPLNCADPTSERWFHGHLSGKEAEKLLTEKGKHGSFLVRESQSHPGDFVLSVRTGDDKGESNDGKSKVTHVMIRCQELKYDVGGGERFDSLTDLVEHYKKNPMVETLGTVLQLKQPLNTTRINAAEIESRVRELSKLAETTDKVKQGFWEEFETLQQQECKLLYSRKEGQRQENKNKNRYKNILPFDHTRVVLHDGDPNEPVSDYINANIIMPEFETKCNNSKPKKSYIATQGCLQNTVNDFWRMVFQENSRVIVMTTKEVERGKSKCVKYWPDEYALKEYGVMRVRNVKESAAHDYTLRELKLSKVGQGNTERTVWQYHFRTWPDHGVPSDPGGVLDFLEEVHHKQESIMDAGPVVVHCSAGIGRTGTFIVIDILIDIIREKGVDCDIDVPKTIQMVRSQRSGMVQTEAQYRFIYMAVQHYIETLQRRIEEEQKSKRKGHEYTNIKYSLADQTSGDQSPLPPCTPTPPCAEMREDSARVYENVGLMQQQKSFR

[2] = tested on: Phospho-ERK levels in KYSE-520 cells; assay: pERK AlphaScreen Protocol; format: cell-based; details: Homo sapiens, KYSE-520, 2 h, 2 hr compound incubation, phospho-ERK1/2 AlphaScreen SureFire
Method: KYSE-520 cells (10 k cells/well) were grown in 384-well plate in 20 uL of medium (RPMI-1640, without phenol red, containing 10% FBS) at 37° C. with 5% CO2 overnight. DMSO (control) or increasing concentrations of compounds were diluted in medium, added to the 384-well plate (5 uL/well, final DMSO concentration of 1%), and cells were then incubated with compounds for 2 hr. Phospho-ERK levels were measured using phospho-ERK1/2 AlphaScreen SureFire (PerkinElmer, TGRESB10K) following manufacturer's recommendations. Dose-response curves were analyzed using IC50 regression curve fitting (GeneData Screener). Curves were normalized to a high control without inhibitor (DMSO only), and low control (1 μM selumetinib).

N[C@@H]1CCCC12CCN(c1cnc3c(-c4ccncc4Cl)n[nH]c3n1)CC2 [Example 56, (R)-8-(3-(3-chloro-pyridin-4-yl)-1H-pyrazolo[3,4-b]-pyrazin-6-yl)-8-azaspiro[4.5]decan-1-amine]
IC50 [1]: 552 nM | IC50 [2]: 200 nM

From patent US10280171B2, “Heterocyclic inhibitors of PTPN11” (priority 2016, dated 2019)
